These results are taken from patent publication US20210347785A1, “PREPARATION AND APPLICATION OF AROMATIC COMPOUND HAVING IMMUNOREGULATORY FUNCTION” (SHANGHAI ENNOVABIO PHARMACEUTICALS CO., LTD., priority 2018, published 2021).

The chains behind the UniProt entries cited, without tags or fusion partners. Residues count along the entry.
UniProt Q9NZQ7, 19-238 limits assumed: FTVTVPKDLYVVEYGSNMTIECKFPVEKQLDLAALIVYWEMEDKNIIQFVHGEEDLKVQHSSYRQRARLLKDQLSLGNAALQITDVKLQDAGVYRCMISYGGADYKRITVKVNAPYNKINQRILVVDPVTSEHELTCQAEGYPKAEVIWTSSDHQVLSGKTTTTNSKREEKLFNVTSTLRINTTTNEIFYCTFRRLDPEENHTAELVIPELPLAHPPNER

The assay deals with PD-1/PD-L1 (Homo sapiens, UniProt Q9NZQ7). Briefly: PD-1/PD-L1 homogeneous time-resolved fluorescence (HTRF) binding assay. The settings on record: read-out: PD-L1 IC50, 665 nm/620 nm ratio. The text has this:
Test Example 1: Detect the Inhibitory Effect of the Compound to the Binding of PD-1/PD-L1 Protein
The PD-1/PD-L1 homogeneous time-resolved fluorescence method is used to detect the binding ability of the compound with PD-L1.
PD-1/PD-L1 binding assay kit (Cisbio, Cat #63ADK000CPDEC) was chosen, which contains two proteins Tag 1-PD-L1 and Tag 2-PD-1, and two antibodies Anti-Tag1-Eu^3+ and Anti-Tag2-XL 665. The principle of detection was: Anti-tag1-Eu^3+ was used as the donor of HTRF, and Anti-Tag2-XL 665 was used as the acceptor of HTRF. When Tag 1-PD-L1 interacts with Tag 2-PD-1, the added HTRF donor and the acceptor are close to each other. […] The inhibitory effect of the compound can be determined by comparing the ratio of 665 nm/620 nm. Tag 1-PD-L1 was diluted with Diluent buffer (cat #62DLBDDF) to a working concentration of 10 nM, Tag 2-PD-1 was diluted with Diluent buffer to a working concentration of 500 nM, Anti-Tag1-Eu^3+ was diluted with detection buffer (cat #62DB1FDG) at a ratio of 1:100, Anti-Tag2-XL 665 was diluted with detection buffer at a ratio of 1:20, and the compound to be detected was diluted with diluent buffer to a final concentration of 2×. […] BioTek Synergy™ Neo2 multifunctional microplate reader was used to detect so as to provide the 665 nm/620 nm ratio. […]
(In general: TR-FRET usually uses a lanthanide donor and a delayed reading to cut background.)

Each structure is given as a SMILES string.

Take `COc1nc(-c2cccc(-c3cccc(Nc4nccc5sc(CNCC(=O)O)nc45)c3Cl)c2Cl)ccc1CNC[C@@H]1CCC(=O)N1` [Compound 18, (S)-((4-((2,2′-dichloro-3′-(6-methoxy-5-((((5-carbonylpyrrolidin-2-yl)methyl)amino)methyl)pyridin-2-yl)-[1,1′-biphenyl]-3-yl)amino)thiazolo[4,5-c]pyridin-2-yl)methyl)glycine]: the IC50 is under 100 nM.
